Experimental data taken from patent USRE30451E, “Novel process for producing antibiotics bleomycin” (priority 1969, dated 1980).

Conditions: tumour-inoculated ICR/JCL mice, intraperitoneally once a day for 10 days, doses 25 mg/kg to 0.19 mg/kg, Behres-Karber's method, observed up to 50 days

Cc1c(N)nc([C@H](CC(N)=O)NC[C@H](N)C(N)=O)nc1C(=O)N[C@H](C(=O)N[C@H](C)[C@@H](O)[C@H](C)C(=O)N[C@H](C(=O)NCCc1nc(-c2nc(C(=O)NCCC[S+](C)C)cs2)cs1)[C@@H](C)O)[C@@H](O[C@@H]1O[C@@H](CO)[C@@H](O)[C@H](O)[C@@H]1O[C@H]1O[C@H](CO)[C@@H](O)[C@H](OC(N)=O)[C@@H]1O)c1c[nH]cn1.[Br-] [Compound 1, Bleomycin A2, reference compound] gave an LD50 of 9.4.
